Test results taken from DBAASP.

Tests used:
[1] = test system: Staphylococcus aureus ATCC 12600; test: ≥ marks a high value that may be exact or a test limit, other limits are often not marked, values filed in µg/mL are converted to µM
[2] = test system: Escherichia coli K-12; test: as above

SMILES | MIC [1] [µM] | MIC [2] [µM]
CC[C@H](C)[C@H](NC(=O)[C@H](C)NC(=O)CNC(=O)[C@@H](NC(=O)[C@@H](NC(=O)[C@@H](NC(=O)CNC(=O)[C@@H](NC(=O)[C@@H](NC(=O)[C@@H](NC(=O)[C@H](C)NC(=O)[C@H](Cc1ccccc1)NC(=O)[C@H](CC(C)C)NC(=O)[C@H](CCCN=C(N)N)NC(=O)[C@H](CCCN=C(N)N)NC(=O)[C@H](CC(C)C)NC(=O)CNC(=O)CNC(=O)[C@@H](NC(=O)[C@@H](N)Cc1ccccc1)[C@@H](C)CC)[C@@H](C)O)C(C)C)C(C)C)[C@@H](C)O)C(C)C)C(C)C)C(=O)N[C@@H](CC(N)=O)C(=O)N[C@@H](CCCCN)C(=O)N[C@@H](CC(C)C)C(=O)NCC(=O)NCC(=O)NCC(=O)O [FIGGLRRLFATVVGTVVGAINKLGGG] | ≥ 64 | 4 (≈ 10.3 µg/mL)
CC[C@H](C)[C@H](NC(=O)[C@H](CC(C)C)NC(=O)[C@H](C)NC(=O)[C@@H]1CCCN1C(=O)[C@H](CC(C)C)NC(=O)CNC(=O)[C@@H](NC(=O)[C@@H](NC(=O)[C@H](CC(C)C)NC(=O)[C@@H](NC(=O)[C@H](CCCCN)NC(=O)[C@H](CCCCN)NC(=O)[C@H](C)NC(=O)[C@H](C)NC(=O)[C@H](CO)NC(=O)[C@@H](NC(=O)[C@H](CC(C)C)NC(=O)[C@H](CCCCN)NC(=O)[C@H](CCCCN)NC(=O)[C@@H](NC(=O)[C@H](Cc1ccccc1)NC(=O)[C@H](CCCCN)NC(=O)[C@H](CCCCN)NC(=O)[C@H](Cc1c[nH]c2ccccc12)NC(=O)[C@@H](N)CCCCN)[C@@H](C)CC)[C@@H](C)O)C(C)C)[C@@H](C)O)[C@@H](C)O)C(=O)N[C@@H](CO)C(=O)O [KWKKFIKKLTSAAKKVLTTGLPALIS] | ≥ 32 | 2 (≈ 5.74 µg/mL)
CC(C)C[C@H](NC(=O)[C@H](Cc1c[nH]c2ccccc12)NC(=O)[C@H](C)NC(=O)CNC(=O)[C@H](Cc1c[nH]c2ccccc12)NC(=O)[C@H](CC(N)=O)NC(=O)[C@@H](N)CC(C)C)C(=O)N[C@@H](CCCCN)C(=O)N[C@@H](Cc1cnc[nH]1)C(=O)N[C@@H](Cc1c[nH]c2ccccc12)C(=O)N[C@@H](Cc1c[nH]c2ccccc12)C(=O)N[C@@H](CCCCN)C(=O)O [LNWGAWLKHWWK] | ≥ 64 | 

≈ marks a conversion by molar mass, not a printed value.
